The target of assay [1] is T1, P2X purinoceptor 7 (Homo sapiens, UniProt Q99572). Briefly: Antagonist activity at recombinant human P2X7 receptor expressed in human 1321N1 cells assessed as inhibition of Bz-ATP-induced Ca2+ flux preincubated for 30 mins followed by agonist addition measured after 180 sec by calcium-4 dye based FLIPR assay. Format: cell-based.
The target of assay [2] is T2, P2X purinoceptor 7 (Rattus norvegicus, UniProt Q64663).
T2 sequence (Q64663 whole entry): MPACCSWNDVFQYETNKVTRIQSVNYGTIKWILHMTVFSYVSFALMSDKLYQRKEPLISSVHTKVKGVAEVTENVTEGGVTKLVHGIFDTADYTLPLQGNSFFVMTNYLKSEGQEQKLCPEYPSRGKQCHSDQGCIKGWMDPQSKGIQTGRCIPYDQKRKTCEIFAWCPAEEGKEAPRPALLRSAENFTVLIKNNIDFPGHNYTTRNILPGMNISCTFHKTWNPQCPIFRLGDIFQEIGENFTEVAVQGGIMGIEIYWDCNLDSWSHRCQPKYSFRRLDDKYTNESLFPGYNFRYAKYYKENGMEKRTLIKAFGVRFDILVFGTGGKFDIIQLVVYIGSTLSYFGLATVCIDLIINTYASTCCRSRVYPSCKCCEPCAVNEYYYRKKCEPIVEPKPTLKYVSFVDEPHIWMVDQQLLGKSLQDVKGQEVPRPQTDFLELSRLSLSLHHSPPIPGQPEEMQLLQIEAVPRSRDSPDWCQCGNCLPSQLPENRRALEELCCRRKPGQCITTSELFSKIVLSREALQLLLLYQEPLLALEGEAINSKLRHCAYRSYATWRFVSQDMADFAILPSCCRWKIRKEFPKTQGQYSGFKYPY
Put plainly: Antagonist activity at recombinant rat P2X7 receptor expressed in human 1321N1 cells assessed as inhibition of Bz-ATP-induced Ca2+ flux preincubated for 30 mins followed by agonist addition measured after 180 sec by calcium-4 dye based FLIPR assay. The assay is classed as cell-based. For orientation: Calcium flux is commonly read through the fluorescence of an indicator in the cells.

Amino acid sequences for entries named in this document (tags omitted). A change or cut given only in a name is not applied to a line headed by its entry.
UniProt Q99572: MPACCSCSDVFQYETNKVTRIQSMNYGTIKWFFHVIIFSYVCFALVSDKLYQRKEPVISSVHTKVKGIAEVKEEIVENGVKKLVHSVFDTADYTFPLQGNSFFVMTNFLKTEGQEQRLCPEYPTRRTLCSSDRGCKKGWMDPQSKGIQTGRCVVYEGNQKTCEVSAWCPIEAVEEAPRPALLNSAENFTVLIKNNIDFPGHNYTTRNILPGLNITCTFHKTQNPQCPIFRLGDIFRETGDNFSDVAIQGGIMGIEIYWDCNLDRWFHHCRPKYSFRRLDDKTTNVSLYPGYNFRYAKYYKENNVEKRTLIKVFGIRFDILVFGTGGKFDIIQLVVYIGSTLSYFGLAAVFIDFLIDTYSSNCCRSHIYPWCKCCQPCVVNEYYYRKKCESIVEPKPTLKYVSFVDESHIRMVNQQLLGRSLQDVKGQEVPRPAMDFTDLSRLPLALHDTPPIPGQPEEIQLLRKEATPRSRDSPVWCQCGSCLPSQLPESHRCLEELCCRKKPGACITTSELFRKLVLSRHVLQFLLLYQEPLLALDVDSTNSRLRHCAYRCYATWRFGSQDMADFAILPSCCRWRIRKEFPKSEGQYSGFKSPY
UniProt P08684, whole entry: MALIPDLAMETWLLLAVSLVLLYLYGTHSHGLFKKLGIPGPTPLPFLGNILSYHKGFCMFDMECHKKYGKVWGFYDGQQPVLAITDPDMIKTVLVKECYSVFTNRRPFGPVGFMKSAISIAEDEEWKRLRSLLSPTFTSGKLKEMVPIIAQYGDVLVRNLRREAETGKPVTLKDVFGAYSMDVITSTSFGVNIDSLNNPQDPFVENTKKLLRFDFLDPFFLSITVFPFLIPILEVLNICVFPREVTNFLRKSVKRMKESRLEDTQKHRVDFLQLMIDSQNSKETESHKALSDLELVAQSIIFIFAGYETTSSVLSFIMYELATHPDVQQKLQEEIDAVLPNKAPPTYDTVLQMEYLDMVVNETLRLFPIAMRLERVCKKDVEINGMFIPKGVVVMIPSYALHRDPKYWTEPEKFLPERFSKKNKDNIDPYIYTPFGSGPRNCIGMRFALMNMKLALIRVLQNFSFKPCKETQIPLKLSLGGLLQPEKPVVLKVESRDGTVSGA

Assay [3] deals with T1, P2X purinoceptor 7. Briefly: Displacement of [3H]-(S)-7-(2-chloro-3-(trifluoromethyl)benzyl)-6-methyl-3-(pyrazin-2-yl)-6,7-dihydro-[1,2,4]triazolo[4,3-a]pyrazin-8(5H)-one from recombinant human P2X7 receptor expressed in human 1321N1 cell membranes after 1 hr. The assay is classed as cell-based.
The target in assay [4] is T3, Cytochrome P450 3A4 (Homo sapiens, UniProt P08684). Put plainly: Inhibition of CYP3A4 in human liver microsomes using midazolam as substrate after 15 mins by HPLC analysis. The assay is classed as ADME, tissue-based.
The target of assay [5] is T3, Cytochrome P450 3A4. Briefly: Inhibition of CYP3A4 in human liver microsomes using midazolam as substrate assessed as reduction in 1-OH-midazolam formation by LC/MS/MS analysis. The assay is classed as ADME, tissue-based. A general note: Liver microsomes are vesicles of endoplasmic reticulum, rich in cytochrome P450 enzymes.
For assay [6], the target named is T1, P2X purinoceptor 7.
Assay [7] addresses T2, P2X purinoceptor 7. Briefly: biochemical.

Each structure is given as a SMILES string. pIC50, pKi: −log10 of the molar value.

One may read the pIC50 as the IC50 on a negative log10 scale, so that one unit is a factor of ten. By pKi is commonly meant the negative decadic logarithm of the Ki, by convention in mol/L.

As for `CC1c2ncn(-c3ccc(F)cn3)c2CCN1C(=O)c1cccc(C(F)(F)F)c1Cl` (centres undefined), the negative-log IC50 (pIC50) in assay [1] was 7.85.
For `CC1c2ncn(-c3ccccc3)c2CCN1C(=O)c1cccc(C(F)(F)F)c1Cl` (centres undefined), the pIC50 in assay [1] was 8.30.
In the case of `O=C(c1ccc(Cl)cc1Cl)N1CCc2c(ncn2-c2ccc(F)cn2)C1`, in assay [2], the pIC50 is below 5.00.
As for `C[C@@H]1c2ncn(-c3ccc(F)cn3)c2CCN1C(=O)c1cccc(C(F)(F)F)c1Cl`, the negative logarithm of the Ki (pKi) is 8.15 in assay [3] and 8.10 to 8.15 in assay [7]. Further, the pIC50 in assay [4] is 5.70; in assay [5] it was 5.66; in assay [6], 7.04.
On to `CC1c2ncn(-c3ncc(F)cn3)c2CCN1C(=O)c1cccc(C(F)(F)F)c1Cl` (centres undefined), for which the pIC50 in assay [1] was 8.00.

For the origin of these results see ChEMBL document CHEMBL3856233, “Identification of (R)-(2-Chloro-3-(trifluoromethyl)phenyl)(1-(5-fluoropyridin-2-yl)-4-methyl-6,7-dihydro-1H-imidazo[4,5-c]pyridin-5(4H)-yl)methanone (JNJ 54166060), a Small Molecule Antagonist of the P2X7 receptor” (J Med Chem, 2016).
